The record followed here is US5204355A, “15-nitro-2β, 3β-dihydro- and 15-nitro-2β,3β,6,7-tetrahydrotabersonine derivatives, pharmaceutical compositions containing them and process for preparing same” (Richter Gedeon Vegyeszeti Gyar RT., priority 1990, dated 1993).

This experiment deals with TET-induced increase in the brain water content. As to the kind of experiment: TET-induced cerebral edema in rats (brain water content, protective effect). Type of experiment: in vivo, inbred male Hannover Wistar rats. The source says: The inhibitory effect on the cerebral edema of the compounds of formula (I) was studied by using the method of P. Linnee et al. "L'oedeme cerebral induit chez 1e rat par le triethyletain. Interet et limites comme methode d'etude de antioedemateux cerebraux", Ann. Pharmaceutiques francaises, 42, 431 (1984)) as described hereinafter in detail.
Inbred male Hannover Wistar rats weighing 180 to 200 g were used in these examinations. Before starting and during the treatment the animals were kept on normal laboratory diet and received tap water ad libitum.
The cerebral edema was induced by the daily administration of 2.5 mg/kg of triethyl-tin chloride (abbreviated hereinafter as TET) for 5 days. […]
The animals were decapitated on the 5th day of the treatment at 2 hours after the last treatment (with the test compound). The whole brain was rapidly removed, washed with cold 0.9 % saline, the moisture was removed by a filter paper, the brains were placed on aluminum foils previously weighed and the wet weights of the brains (together with the aluminum foil of known weight) were determined with an accuracy of one tenth mg on an electric balance (Precisa 80/A, PAG Oerlikon AG, Zurich, Switzerland).
Subsequently the brains were dried at 90° C. for 92 hours, then the gross dry weight (dry weight of the brain together with the weight of the aluminum foil) was again measured. […]

On to `NC(=O)CN1CCCC1=O` [piracetam, 2-oxo-1-pyrrolidineacetic acid amide], for which, under “Experiment 5, 100 μmol/kg oral, 5 days TET 2.5 mg/kg”, the Protective effect % is 6.7%. For the same compound, the “protective action against TET-induced edema (in words)” value (result in words) was “did not produce any practically useful protective action”.
